Assays:
Huh-7 cells = assay: Viability assay, alamarBlue, DENV infected Huh-7 cells; conditions: 72 hours; also: test concentration or dose not given here

COc1cc(-c2cnc3c(N4CCOCC4)snc3c2)ccc1N [Example 50, 2-Methoxy-4-(3-morpholinoisothiazolo[4,3-]pyridin-6-yl)aniline]
effect on cellular viability (Huh-7.5 cells): minimal effect on cellular viability
CC50 (Huh-7.5 cells; human): 8.92 ± 1.43 µM
effect on cellular viability (Huh-7 cells): minimal effect on cellular viability

Reference: patent US9822127B2, “GAK modulators as antivirals” (Katholieke Universiteit Leuven, priority 2014, dated 2017)
